The results in this text go back to patent US4767761A, “Ornithine derivatives and their use as methotrexate-resistant cell inhibitors” (priority 1987, dated 1988).

Like-named read-outs stand apart in the source and are kept apart here.

The test system of test [1] is L 1210/R81 murine leukemia cells. Kind of test: Cytotoxicity assay against L 1210/R81 murine leukemia cells, 48 hours. Type of test: cell-based. Conditions: Mus musculus, L1210 ( R81), read-out: L1210/R81 cell growth inhibition IC50. How it is done: A cytotoxicity assay was carried out for the same group of compounds against L 1210 and L 1210/R81 murine leukemia cells cultured for 48 hours in RPMI 1640 medium containing 10% fetal bovine serum, using the procedure of Mosman, J. Immunol. Meth., Vol. 65, 55-63 (1983).

Test [2] concerns L 1210 murine leukemia cells. Briefly: Cytotoxicity assay against L 1210 murine leukemia cells, 48 hours. Type of test: cell-based. Conditions: Mus musculus, L1210, RPMI 1640, 10% fetal bovine serum, read-out: L1210 cell growth inhibition IC50.
Test [3] concerns MTX-resistant SCC15/R1 and SCC25/R1 sublines. Briefly: Growth inhibition of MTX-resistant SCC15/R1 and SCC25/R1 sublines (joint statement). Conditions: result in words.
The target in test [4] is T1, DHFR (Dihydrofolate Reductase) from L 1210/R81 murine leukemia cells (Mus musculus, UniProt P00375).
T1 sequence (P00375 1-187): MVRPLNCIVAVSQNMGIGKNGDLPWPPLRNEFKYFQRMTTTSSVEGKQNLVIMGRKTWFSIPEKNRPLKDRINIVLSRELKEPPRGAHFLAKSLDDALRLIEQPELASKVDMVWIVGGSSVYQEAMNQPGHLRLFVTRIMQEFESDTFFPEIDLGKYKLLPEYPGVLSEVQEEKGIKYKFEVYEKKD
The note with it: read-out: DHFR IC50, range of values; range of six separate experiments on different days (footnote a, Table 1).

On to `Nc1nc(N)c2nc(CNc3ccc(C(=O)N[C@@H](CCCNC(=O)CCC(=O)O)C(=O)O)cc3)cnc2n1` [Compound 3], for which the IC50 in test [1] (48 hours, RPMI 1640, 10% fetal bovine serum) came out at 54 µM; in test [2] it was 0.037 µM.

With `Nc1nc(N)c2nc(CNc3ccc(C(=O)N[C@@H](CCCNC(=O)c4ccccc4C(=O)O)C(=O)O)cc3)cnc2n1` [Compound 7, N^α -(4-Amino-4-deoxypteroyl)-N^67-hemi-phthaloyl-L-Ornithine], the IC50 in test [1] (48 h) was 52 µM; in test [4], 0.00011 to 0.0014 µM. In test [3], the “potency against both resistant cells compared with MTX against the parental cells” value is “exceeded that of MTX against the parental cells”.
